Test results from ChEMBL document CHEMBL6120983, “Synthesis and Structure-Activity Relationship of Covalent Inhibitors of SARS-CoV-2 Papain-Like Protease with Antiviral Potency” (Bioorg Med Chem Lett, 2025).

Target: Replicase polyprotein 1ab (Severe acute respiratory syndrome coronavirus 2, UniProt P0DTD1)
Test: Inhibition of SARS-CoV-2 papain-like protease using Z-Arg-Leu-Arg-Gly-Gly-AMC as substrate incubated for 15 mins

SMILES | IC50 [nM]
COC(=O)/C=C\C(=O)NNC(=O)CCc1ccccc1C(=O)N[C@H](C)c1cccc2ccccc12 | 150
COC(=O)/C=C/C(=O)NNC(=O)CCc1ccccc1C(=O)N[C@H](C)c1cccc2ccccc12 | 190
